Measurements reported in paper PMC6553708 (PLoS ONE, 2019).

Amino acid sequences for entries named in this document (tags omitted).
UniProt P21554, whole entry: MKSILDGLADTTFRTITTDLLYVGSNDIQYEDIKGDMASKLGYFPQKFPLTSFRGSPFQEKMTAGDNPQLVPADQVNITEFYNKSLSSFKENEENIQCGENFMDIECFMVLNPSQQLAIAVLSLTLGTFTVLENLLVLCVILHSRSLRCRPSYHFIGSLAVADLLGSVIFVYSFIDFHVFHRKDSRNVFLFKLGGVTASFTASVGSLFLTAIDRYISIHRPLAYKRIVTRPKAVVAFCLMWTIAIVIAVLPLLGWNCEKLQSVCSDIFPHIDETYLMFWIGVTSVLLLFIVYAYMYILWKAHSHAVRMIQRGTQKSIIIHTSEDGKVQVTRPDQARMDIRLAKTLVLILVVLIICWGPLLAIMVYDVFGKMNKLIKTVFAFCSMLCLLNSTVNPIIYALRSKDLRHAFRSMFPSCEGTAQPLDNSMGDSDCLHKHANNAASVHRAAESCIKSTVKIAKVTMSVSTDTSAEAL
UniProt P23975, whole entry: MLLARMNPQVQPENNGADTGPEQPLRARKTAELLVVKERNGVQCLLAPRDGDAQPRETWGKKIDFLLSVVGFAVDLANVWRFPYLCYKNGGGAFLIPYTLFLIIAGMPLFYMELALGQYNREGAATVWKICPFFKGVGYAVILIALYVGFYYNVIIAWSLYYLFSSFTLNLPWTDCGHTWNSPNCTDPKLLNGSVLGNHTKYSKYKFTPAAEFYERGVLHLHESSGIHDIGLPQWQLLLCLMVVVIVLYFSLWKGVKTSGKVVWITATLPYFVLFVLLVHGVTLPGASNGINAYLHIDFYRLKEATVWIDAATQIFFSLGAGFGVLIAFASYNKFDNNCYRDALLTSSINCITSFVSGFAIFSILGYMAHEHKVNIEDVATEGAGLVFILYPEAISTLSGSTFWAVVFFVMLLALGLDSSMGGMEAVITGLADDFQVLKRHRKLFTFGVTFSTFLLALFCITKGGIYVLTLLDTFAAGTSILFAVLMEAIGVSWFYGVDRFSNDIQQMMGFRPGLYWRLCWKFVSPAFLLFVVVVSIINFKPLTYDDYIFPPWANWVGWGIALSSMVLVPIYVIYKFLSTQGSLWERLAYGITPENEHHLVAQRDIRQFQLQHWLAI
UniProt Q01959, whole entry: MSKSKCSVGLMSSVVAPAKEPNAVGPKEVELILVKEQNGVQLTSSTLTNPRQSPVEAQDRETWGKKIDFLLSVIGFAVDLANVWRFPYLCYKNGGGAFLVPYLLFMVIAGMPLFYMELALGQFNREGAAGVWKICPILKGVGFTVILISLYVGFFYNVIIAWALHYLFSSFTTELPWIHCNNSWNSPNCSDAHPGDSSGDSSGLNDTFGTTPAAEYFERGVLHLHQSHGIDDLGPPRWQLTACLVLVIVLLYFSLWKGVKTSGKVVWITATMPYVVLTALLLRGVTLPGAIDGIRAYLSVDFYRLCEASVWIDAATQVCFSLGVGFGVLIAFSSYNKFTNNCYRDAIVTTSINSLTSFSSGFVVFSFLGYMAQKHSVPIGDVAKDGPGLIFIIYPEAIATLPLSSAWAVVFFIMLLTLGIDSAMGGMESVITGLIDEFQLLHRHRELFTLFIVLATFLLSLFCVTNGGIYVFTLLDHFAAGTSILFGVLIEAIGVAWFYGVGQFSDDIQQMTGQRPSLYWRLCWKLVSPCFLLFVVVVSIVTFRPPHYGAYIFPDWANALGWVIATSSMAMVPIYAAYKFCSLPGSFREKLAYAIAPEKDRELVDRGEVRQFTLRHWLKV

What was measured:
[1] = biological target: T1, Cannabinoid Receptor Type 1 (CB1) (Homo sapiens, UniProt P21554); parameters: membranes used; details: read-out: Target Binding Affinity Determined by Competition Radioligand Binding–KI, CB1
[2] = biological target: T2, Norepinephrine Transporter (NET) (Homo sapiens, UniProt P23975); type: cell-based; details: read-out: NET IC50 (transporter assay)
T2 construct: HA (N); host or cells: HEK293 (ATCC CRL-1573), electroporated, G418-selected population

[3] = biological target: T3, Dopamine Transporter (DAT) (Homo sapiens, UniProt Q01959); details: read-out: Target Binding Affinity Determined by Competition Radioligand Binding–KI, DAT
T3 construct: HA (N); host or cells: HEK293 (ATCC CRL-1573), electroporated, G418-selected population

[4] = biological target: T1, Cannabinoid Receptor Type 1 (CB1); details: read-out: CB1 EC50 (35S-GTPγS)
[5] = biological target: T3, Dopamine Transporter (DAT); type: cell-based; details: read-out: DAT IC50 (transporter assay)

Buprenorphine
> 2 µM: Ki [1] | IC50 [2] | Ki [3] | EC50 [4] | IC50 [5]
